Drawing on BindingDB's records for doi:10.1038/nchembio.2134 (University of Pennsylvania, 2016), this text covers IC50 and Ki for one molecule.

As a reminder, the IC50 is the concentration needed to halve the response being measured. The low end stands for greater potency, the high end for weaker potency. The Ki is a dissociation constant, usually derived from enzyme kinetics or from competition with a known ligand. A high value points to lower affinity.

Assay [1] concerns the target T1, Histone deacetylase 6 [60-420] (Danio rerio, UniProt F8W4B7).
T1 construct: 60-420
T1 sequence (F8W4B7 whole entry): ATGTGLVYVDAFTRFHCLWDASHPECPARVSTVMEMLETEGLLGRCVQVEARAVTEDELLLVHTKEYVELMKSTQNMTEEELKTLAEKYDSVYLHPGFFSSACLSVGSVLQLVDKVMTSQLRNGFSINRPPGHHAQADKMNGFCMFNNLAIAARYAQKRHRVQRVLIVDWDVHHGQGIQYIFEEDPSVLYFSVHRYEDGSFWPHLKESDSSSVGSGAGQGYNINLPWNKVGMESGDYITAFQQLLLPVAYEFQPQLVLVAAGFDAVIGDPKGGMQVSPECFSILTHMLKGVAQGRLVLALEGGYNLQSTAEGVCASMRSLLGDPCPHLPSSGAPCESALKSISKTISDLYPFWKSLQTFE
The experiment in a line: HDAC6 fluorescence anisotropy assay. The note with it: 25 °C. (In general: Fluorescence polarisation rises when a labelled molecule tumbles more slowly, as on binding a larger partner.)

The target of assay [2] is T2, Histone deacetylase 6 [440-798] (Danio rerio, UniProt F8W4B7).
T2 construct: 440-798
T2 sequence (F8W4B7 whole entry): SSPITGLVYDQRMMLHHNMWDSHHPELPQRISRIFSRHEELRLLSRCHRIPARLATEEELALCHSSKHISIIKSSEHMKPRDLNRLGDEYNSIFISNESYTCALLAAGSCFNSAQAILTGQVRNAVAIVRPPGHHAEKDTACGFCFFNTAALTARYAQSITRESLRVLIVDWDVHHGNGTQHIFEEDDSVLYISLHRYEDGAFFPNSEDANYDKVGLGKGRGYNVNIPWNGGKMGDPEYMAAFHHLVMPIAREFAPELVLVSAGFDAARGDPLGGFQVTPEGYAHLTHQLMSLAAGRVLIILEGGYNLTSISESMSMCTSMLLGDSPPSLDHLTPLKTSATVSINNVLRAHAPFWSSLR
In words: HDAC6 fluorescence anisotropy assay. The settings on record: 25 °C.

As to `C/C(=C\C(C)/C=C/C(=O)NO)C(=O)c1ccc(N(C)C)cc1` (centres undefined) [TSA], in assay [1], half-maximal inhibition (IC50) required 7 nM and the Ki is 4.8 nM. Moreover, in assay [2], the half-maximal inhibitory concentration (IC50) was found to be 1.4 nM and the Ki is 0.8 nM.
